In patent publication US4451485A, “Treatment of cardio-vascular diseases with 3-(2,2,2-trimethylhydrazinium) propionate dihydrate” (Institu Organicheskogo Sinteza Akademii Nauk Latviiskoi SSR, priority 1981, dated 1984):

How the values were obtained:
in vivo = conditions: mouse, ip, white mice, intraperitoneal, read-out: Acute toxicity, LD50
[1] = Coronary circulation and hemodynamics in narcotized cats; conditions: in vivo
Procedure: In acute experiments on narcotized cats with a mass of from 2.9 to 4.1 kg under artificial respiration, arterial pressure was recorded in the common carotide artery, central venous pressure in the right auricle, volume rate of blood flow in the ascending aortic arch and volume rate of the coronary blood flow. At the same time, there was recorded the content of oxyhemoglobin in venous coronary blood.

CCOC(=O)COc1ccc2c(C)c(CCN(CC)CC)c(=O)oc2c1 [Carbocromene, reference compound]
LD50 (in vivo): 650 mg/kg | Therapeutical index [1]: 130
